Test results reported in BindingDB's records for doi:10.1021/jm980290i (Research Triangle Institute, 1998).

Assay: Inhibition of [35S]GTP-gamma-S, binding in guinea pig caudate stimulated by SNC80 (Opioid receptor delta 1)

C[C@H]1C2CCCC1(c1cccc(O)c1)CCN2C (stereo partly drawn) [3-((R)-2,9-Dimethyl-2-aza-bicyclo[3.3.1]non-5-yl)-phenol] showed a Ki of 750 nM.
